# Assays:
# Test in all cases: Histone peptide microarray
# Assay type in all cases: binding, human
# BPTF (PB) = details: sheet "Array Heatmap"; GST-tagged BPTF (PB); arrays performed twice, total replicate number n = 4
# Source text: (§1) To more comprehensively define the histone interactions of the 31 PHD readers identified from the domain microarray analyses, we probed each on an alternate microarray platform containing a library of 293 synthetic histone peptides with single or combinatorial PTMs (Additional file 2: Figure S4 and Additional file 3: Table S2). […] In general, the 31 PHD fingers were confirmed to associate with the H3 tail with the same H3K4 methyl preferences as in the domain microarrays (Fig. 2; Additional file 3: Table S2). […] In addition, we confirmed the newly identified interactions observed with the domain microarrays for PHRF1 and TRIM66 (Fig. 2).
# (§2) The 31 GST-tagged PHD readers identified in the PHD finger domain array were expressed and purified as previously. Histone peptide arrays and peptide pulldown assays were conducted as recently described (specifically, the optimized protocol from Petell et al. for the former).
# (§3) Supplementary file 13072_2020_328_MOESM3_ESM.xlsx: Additional file 3: Table S2. Histone Peptide Microarray Results. Excel Tab Peptide List is a compiled list of the entire 293 histone peptide library with amino acid sequence ranges. Excel Tab Peptide Array Grid Map is a table representing the pattern in which peptides have been printed for the peptide microarray. Each number corresponds to the peptide number designated in Peptide List. Excel Tab Average Signals is a compiled set of binding data: chromatin reader at 0.5 μM vs. entire 293 peptide library. Data is presented as the average and standard deviation of 4 replicates. The average signals are colored to indicate signal intensity with green being strong and white being weak/low. […] Key: red= stronger relative binding; blue = weaker relative binding. Excel Tab Array info summary is a table summarizing the domains, sequence coverage, array signal range, and noise for each of the GST-tagged readers assayed on the peptide microarrays.
# MLL5 = details: sheet "Array Heatmap"; GST-tagged MLL5; arrays performed twice, total replicate number n = 4
# Source text: as §1, §2, §3
# AIRE (PP) = details: sheet "Array Heatmap"; GST-tagged AIRE (PP); arrays performed twice, total replicate number n = 4
# Source text: as §1, §2, §3
# KDM5A (1) = details: sheet "Array Heatmap"; GST-tagged KDM5A (1); arrays performed twice, total replicate number n = 4
# Source text: as §1, §2, §3
# CHD4 (PPCC) = details: sheet "Array Heatmap"; GST-tagged CHD4 (PPCC); arrays performed twice, total replicate number n = 4
# Source text: as §1, §2, §3
# PHRF1 (RP) = details: sheet "Array Heatmap"; GST-tagged PHRF1 (RP); arrays performed twice, total replicate number n = 4
# Source text: as §1, §2, §3
# DPF2 (PPC2W2) = details: sheet "Array Heatmap"; GST-tagged DPF2 (PPC2W2); arrays performed twice, total replicate number n = 4
# Source text: as §1, §2, §3
# KDM5A (3) = details: sheet "Array Heatmap"; GST-tagged KDM5A (3); arrays performed twice, total replicate number n = 4
# Source text: as §1, §2, §3
# ING3 = details: sheet "Array Heatmap"; GST-tagged ING3; arrays performed twice, total replicate number n = 4
# Source text: as §1, §2, §3
# CHD5 (PCC) = details: sheet "Array Heatmap"; GST-tagged CHD5 (PCC); arrays performed twice, total replicate number n = 4
# Source text: as §1, §2, §3
# PHF2 = details: sheet "Array Heatmap"; GST-tagged PHF2; arrays performed twice, total replicate number n = 4
# Source text: as §1, §2, §3
# TRIM66 (PB) = details: sheet "Array Heatmap"; GST-tagged TRIM66 (PB); arrays performed twice, total replicate number n = 4
# Source text: as §1, §2, §3
# TAF3 = details: sheet "Array Heatmap"; GST-tagged TAF3; arrays performed twice, total replicate number n = 4
# Source text: as §1, §2, §3
# RAG2 = details: sheet "Array Heatmap"; GST-tagged RAG2; arrays performed twice, total replicate number n = 4
# Source text: as §1, §2, §3
# ING5 = details: sheet "Array Heatmap"; GST-tagged ING5; arrays performed twice, total replicate number n = 4
# Source text: as §1, §2, §3
# CHD5 (PPCC) = details: sheet "Array Heatmap"; GST-tagged CHD5 (PPCC); arrays performed twice, total replicate number n = 4
# Source text: as §1, §2, §3
substance,measurement,setting,value
H3K4me1 + K9me2: H3 1-15,"Array Heatmap signal, BPTF (PB)",BPTF (PB),0.2979
same,"Array Heatmap signal, MLL5",MLL5,0.5361
same,"Array Heatmap signal, AIRE (PP)",AIRE (PP),0.38
same,"Array Heatmap signal, KDM5A (1)",KDM5A (1),0.3964
same,"Array Heatmap signal, CHD4 (PPCC)",CHD4 (PPCC),0.5222
same,"Array Heatmap signal, PHRF1 (RP)",PHRF1 (RP),0.4947
same,"Array Heatmap signal, DPF2 (PPC2W2)",DPF2 (PPC2W2),0.6276
same,"Array Heatmap signal, KDM5A (3)",KDM5A (3),0.6108
same,"Array Heatmap signal, ING3",ING3,0.4264
same,"Array Heatmap signal, CHD5 (PCC)",CHD5 (PCC),0.7157
same,"Array Heatmap signal, PHF2",PHF2,0.5256
same,"Array Heatmap signal, TRIM66 (PB)",TRIM66 (PB),0.5105
same,"Array Heatmap signal, TAF3",TAF3,0.2656
same,"Array Heatmap signal, RAG2",RAG2,0.2965
same,"Array Heatmap signal, ING5",ING5,0.2893
same,"Array Heatmap signal, CHD5 (PPCC)",CHD5 (PPCC),0.4552
